The values that follow come from US20110312984A1, “STAT3 INHIBITORS” (priority 2008, published 2011).

One may read the IC50 as the concentration at which inhibition is half-maximal.

Each structure is given as a SMILES string.

The assay deals with SUM159PT and HS578T cells. The experiment in a line: Mammosphere formation (MSFE) assay in vitro.

In the case of `O=S(=O)(Nc1cc(Sc2nc[nH]n2)c(O)c2ccccc12)c1ccc(Br)cc1`, the “decreasing MSFE compared with parent Cpd188” value was 1 log greater activity. In addition, the “self-renewal as measured by MSFE” value (initial studies) is given as “affects self-renewal”. Also, the IC50 (read-out: Mammosphere ~IC50, μM***, compound at 1, 10 or 100 μM, incubated 3 d, spheres counted on day 3) stood at 3 µM.
